Laboratory results from PMC4669970 (Biochemical pharmacology, 2015).

Chains of the proteins cited; added tags and fusions are not shown. Residues count along the entry.
UniProt P06276, 29-602: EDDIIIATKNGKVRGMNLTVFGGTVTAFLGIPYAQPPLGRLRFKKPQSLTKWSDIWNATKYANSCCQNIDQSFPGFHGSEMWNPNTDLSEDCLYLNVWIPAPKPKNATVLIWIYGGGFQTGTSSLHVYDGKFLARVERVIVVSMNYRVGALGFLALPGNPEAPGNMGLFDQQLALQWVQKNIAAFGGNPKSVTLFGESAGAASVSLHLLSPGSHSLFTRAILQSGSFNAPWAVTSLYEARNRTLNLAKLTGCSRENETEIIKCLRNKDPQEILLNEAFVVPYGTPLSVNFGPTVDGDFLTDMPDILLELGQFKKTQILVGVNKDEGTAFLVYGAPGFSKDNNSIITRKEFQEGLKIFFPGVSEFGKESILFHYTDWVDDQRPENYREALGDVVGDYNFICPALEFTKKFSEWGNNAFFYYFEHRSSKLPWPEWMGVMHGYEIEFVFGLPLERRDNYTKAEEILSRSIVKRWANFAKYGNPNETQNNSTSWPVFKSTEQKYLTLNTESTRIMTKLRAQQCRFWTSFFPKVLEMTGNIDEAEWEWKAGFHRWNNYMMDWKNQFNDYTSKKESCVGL

Biological target: human BChE (Homo sapiens, UniProt P06276)
Assay: Inhibition of BChE-catalysed ghrelin hydrolysis by BChE-specific inhibitors
Assay type: biochemical
Settings: parallel assays, modest concentrations of inhibitor

CC(C)NP(=O)(NC(C)C)OP(=O)(NC(C)C)NC(C)C [iso-OMPA]
effect on BChE ghrelin hydrolysis reactions: stopped those reactions completely
